{"source": "ChEMBL document CHEMBL1629519", "about": "“2-Hydroxypropyl-β-cyclodextrin strongly improves water solubility and anti-proliferative activity of pyrazolo[3,4-d]pyrimidines Src-Abl dual inhibitors” (Eur J Med Chem, 2010)", "assay": "Lipophilicity, log P of the compound", "type": "physicochemical", "conditions": "octanol/water"}
{"compound": "CSc1nc(NCCc2ccccc2)c2cnn(CC(Cl)c3ccccc3)c2n1", "note": "(stereo unspecified)", "values": [{"measurement": "logP", "result": 6.01}]}
